This assay addresses PDE6D/avi-K-RasFMe (Homo sapiens, UniProt O43924). The assay is described as follows: SPR inhibition of PDE6D binding to captured avi-K-RasFMe. Conditions: read-out: IC50 ± SEM, inhibition of PDE6D/avi-K-RasFMe, 1.25 μM PDE6D, n = 3.

Protein sequences, listed by entry. Tags and fused reporters are not part of them. Lines headed by an entry give the natural chain unless they say otherwise; changes in a name come on top.
UniProt O43924: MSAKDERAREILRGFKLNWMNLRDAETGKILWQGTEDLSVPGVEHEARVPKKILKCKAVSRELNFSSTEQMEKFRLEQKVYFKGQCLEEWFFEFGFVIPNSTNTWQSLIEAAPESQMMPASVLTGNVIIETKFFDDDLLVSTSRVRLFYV

In the case of `c1ccc(Cn2c(-c3ccc(OC[C@H](C4CCNCC4)n4c(-c5ccccc5)nc5ccccc54)cc3)nc3ccccc32)cc1` [Deltarasin, reference compound], the IC50 turned out to be 1900 ± 100 nM.

These data come from article PMC6964506 (ACS Omega, 2019).
